Experimental data as given in article PMC6138654.

Biological target: αβ-tubulin (tubulin dimer; as free tubulin, Tau-induced microtubules or Taxol-stabilized microtubules) (lamb (purified from lamb brains))

In the case of “Tau labeled with MTSL on its two natural cysteines (Tau^MTSL) (from UniProt P10636-8 1-441) (natural protein)”, the k of MTSL label release (thiol-disulfide exchange) by EPR, h(−1)/h(0) against time; Induced-MTs, 10 µM labeled protein, 1:2 with tubulin, 37 °C is reported as 0.23 min⁻¹ and the k of MTSL label release (thiol-disulfide exchange) by EPR, h(−1)/h(0) against time; Taxol-MTs, 10 µM labeled protein, 1:2 with tubulin, 37 °C is reported as 0.054 min⁻¹.
